Results: publication PMC6600871 (Nature chemical biology, 2019)

Amino acid sequences for entries named in this document (tags omitted).
VCB (VHL-ElonginC-ElonginB) (Homo sapiens), P40337, UniProt P40337, whole entry, chain 1 of 3: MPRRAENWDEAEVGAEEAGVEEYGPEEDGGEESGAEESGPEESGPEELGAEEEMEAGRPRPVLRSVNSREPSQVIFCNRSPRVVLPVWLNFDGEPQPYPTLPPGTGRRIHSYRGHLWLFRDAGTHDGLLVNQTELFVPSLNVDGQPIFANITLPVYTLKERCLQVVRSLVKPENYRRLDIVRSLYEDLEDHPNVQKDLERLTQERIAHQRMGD

Biological target: VCB (VHL-ElonginC-ElonginB) (Homo sapiens), P40337
Conditions: modification not given

- Kd: 1.5 nM
Binder: LEMLAPYIPMDDDFQLRSF [HIF-1α peptide (FAM-labelled, JC9), Q16665]
